Results: patent US6465479B1, “Pyridomorphinans and use thereof” (Southern Research Institute, priority 1999, dated 2002)

Chains of the proteins cited; added tags and fusions are not shown. Lines headed by an entry give the natural chain unless they say otherwise; changes in a name come on top.
UniProt P32300, whole entry: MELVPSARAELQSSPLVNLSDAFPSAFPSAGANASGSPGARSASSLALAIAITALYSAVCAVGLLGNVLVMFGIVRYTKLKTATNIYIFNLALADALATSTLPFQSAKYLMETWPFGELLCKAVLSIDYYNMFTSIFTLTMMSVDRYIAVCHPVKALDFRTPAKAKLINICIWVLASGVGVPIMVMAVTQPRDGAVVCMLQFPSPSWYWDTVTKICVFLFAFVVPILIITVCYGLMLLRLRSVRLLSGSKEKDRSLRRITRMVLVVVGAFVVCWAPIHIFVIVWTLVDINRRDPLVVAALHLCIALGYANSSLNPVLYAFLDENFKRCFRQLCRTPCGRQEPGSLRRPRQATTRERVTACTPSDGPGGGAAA

Target: T1, δ opioid receptor (DPDPE) in the MVD preparation (Mus musculus, UniProt P32300)
T1 construct: electrically stimulated mouse vas deferens (MVD) and guinea pig ileum (GPI) smooth muscle preparations; from tissue; host or cells: mouse vas deferens
Assay: Opioid antagonist potency against DPDPE (δ) in electrically stimulated mouse vas deferens (MVD)
Format: cell-based

## Oc1ccc2c3c1O[C@H]1c4ncc(-c5ccc(Cl)cc5)cc4C[C@@]4(O)[C@@H](C2)N(CC2CC2)CC[C@]314 [Compound 6d, 5′-(4-Chlorophenyl)-17-(Cyclopropylmethyl)-6,7-didehydro-3,14-dihydroxy-4,5α-epoxypyrido[2′3′:6,7]morphinan]
  Kb: 660 pM
